Activity calls are given as the source filed them. The rule behind the calls is not given here.
Molecular target: T1, Uridine-cytidine kinase 2 (Homo sapiens) (UniProt Q9BZX2)
T1 sequence (whole entry): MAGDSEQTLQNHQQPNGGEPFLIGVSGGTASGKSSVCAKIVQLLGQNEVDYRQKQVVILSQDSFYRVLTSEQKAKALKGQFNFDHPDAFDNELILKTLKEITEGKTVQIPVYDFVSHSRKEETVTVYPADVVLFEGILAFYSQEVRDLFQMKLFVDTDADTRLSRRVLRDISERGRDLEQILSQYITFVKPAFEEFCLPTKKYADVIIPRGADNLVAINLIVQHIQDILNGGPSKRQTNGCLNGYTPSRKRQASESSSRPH
Assay: Inhibition of UCK2 in human K562 cells assessed as inhibition of uridine salvage at 50 uM incubated for 24 hrs by 5-ethynyl-uridine incorporation assay
Assay type: cell-based
Procedure, shortened: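 K562 cells were given compound at 50 µM with 50 µM 5-ethynyl-uridine (5-EU). 5-EU incorporated into cellular RNA was quantified by click chemistry with a fluorescent probe. Dipyridamole at 20 µM served as control. Activity is reported as percent inhibition of 5-EU salvage.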

Compound | inhibition
O=C(CSCn1[nH]nc2c(=O)nc(Cc3ccc(F)cc3)nc1-2)Nc1ccc(F)cc1 | 19.3%
COc1cccc(NC(=O)CSCn2[nH]nc3c(=O)nc(Cc4ccc(F)cc4)nc2-3)c1 | inactive
